This experiment addresses T1, BromoTag-Brd2 (Homo sapiens, UniProt O60885+P40337, L387A).
T1 construct: comprising residues 368-440 of human Brd4; Brd2 (endogenous protein, fusion partner in the same polypeptide); eGFP-P2A (upstream marker in the knock-in cassette) (N, cleaved yes); expressed in transfected cells; host or cells: HEK293, heterozygous CRISPR knock-in at the endogenous BRD2 locus
The experiment can be described thus: Dose-response degradation assay (western blot, 6 h) in heterozygous BromoTag-Brd2 HEK293 cells. It is filed as cell-based. Here is the method: Dose-response Degradation Assays. All dose-response degradation assays were performed on the genotype verified heterozygous BromoTag-Brd2 HEK293 cell line. Heterozygous BromoTag-Brd2 HEK293 cells were plated at a density of 5×10^5 cells per well of a six healthy plate a day before initiation of the titration experiment. PROTAC compounds were dissolved in DMSO at a concentration of 10 mM, from these stock concentrations, PROTAC compounds were diluted to appropriate concentrations using DMSO in the range of 10 μM-1 nM. […] Control compounds such as MZ1, cis-MZ1 were similarly dissolved in DMSO to the appropriate concentration. […] Cells were washed twice with PBS before being harvested.
Western Blotting. […] The membranes were blocked for 1 h prior to incubation with the primary antibodies using 5% Milk TBST. […] Following overnight incubation with the primary antibodies at 4° C., the membranes were incubated with secondary antibodies (Anti-rabbit, Abcam AB216773, 1:5000 or anti-mouse, Abcam AB216774, 1:5000) and hFAB™ Rhodamine Anti-Tubulin Antibody (Biorad, 12004165, 1:10000) for one h and then imaged with a Bio-Rad imager (LI-COR Biosciences). All western blots were analysed for band intensities using Image Lab from Bio-Rad (LI-COR, Biosciences). The data extracted from these blots were then plotted and analysed using Prism (v. 8.2.0, GraphPad).

Sequences of proteins named here, by UniProt entry; tags and fusion partners are left off. A change or cut given only in a name is not applied to a line headed by its entry.
UniProt P40337, whole entry: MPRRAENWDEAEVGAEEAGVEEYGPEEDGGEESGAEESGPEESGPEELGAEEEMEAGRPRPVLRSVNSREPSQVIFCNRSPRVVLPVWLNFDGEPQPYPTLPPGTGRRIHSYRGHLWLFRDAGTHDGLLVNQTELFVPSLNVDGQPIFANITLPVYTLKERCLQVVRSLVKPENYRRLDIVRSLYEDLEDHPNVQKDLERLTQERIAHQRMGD

Where [1] appears, read: HEK293, Ab: BromoTag-Brd2, single stereoisomers, 6 h.

In general, Dmax refers to the largest share of the target that was removed. The low end stands for a partial loss of target, the high end for a fuller loss of target. With `CC[C@@H](C(=O)OCCOCCOCCOCC(=O)N[C@H](C(=O)N1C[C@H](O)C[C@H]1C(=O)NCc1ccc(-c2scnc2C)cc1)C(C)(C)C)[C@@H]1N=C(c2ccc(Cl)cc2)c2c(sc(C)c2C)-n2c(C)nnc21` (relative stereo) [ET-OMZ1 (23), (S)-13-((2S,4R)-4-hydroxy-2-((4-(4-methylthiazol-5-yl)benzyl)carbamoyl)pyrrolidine-1-carbonyl)-14,14-dimethyl-11-oxo-3,6,9-trioxa-12-azapentadecyl (R*)-2-((S*)-4-(4-chlorophenyl)-2,3,9-trimethyl-6H-thieno[3,2-f][1,2,4]triazolo[4,3-a][1,4]diazepin-6-yl)butanoate], where the note is “HEK293, Ab: Brd2, second-generation B&H-PROTACs, 6 h”, the Dmax amounted to 96%.
Regarding `CC[C@@H](C(=O)OCCOCCOCCOCC(=O)N[C@H](C(=O)N1C[C@H](O)C[C@H]1C(=O)NCc1ccc(-c2scnc2C)cc1)C(C)(C)C)[C@@H]1N=C(c2ccc(Cl)cc2)c2c(sc(C)c2C)-n2c(C)nnc21` (single isomer, unassigned) [AGB1 (46)], the greatest degradation seen (Dmax) came to 97% under setting [1] and 97% (HEK293, BromoTag'ed BRD2 (P25440), N-term tag, Table 6).
Under setting [1], `CC[C@@H](C(=O)NCCOCCOCCOCC(=O)N[C@H](C(=O)N1C[C@H](O)C[C@H]1C(=O)NCc1ccc(-c2scnc2C)cc1)C(C)(C)C)[C@@H]1N=C(c2ccc(Cl)cc2)c2c(sc(C)c2C)-n2c(C)nnc21` (single isomer, unassigned) [AGB3 (48)] returned a maximal degradation (Dmax) of 96%.

The values above are taken from patent US20250130239A1, “PROTEIN DEGRADER” (University of Dundee, priority 2021, published 2025).
